This note sets out measurements from patent publication US11065232B2, “Dihydrotetrabenazine for the treatment of anxiety and psychoses” (ADEPTIO PHARMACEUTICALS LIMITED, priority 2017, dated 2021).

The chains behind the UniProt entries cited, without tags or fusion partners.
UniProt P18089, whole entry: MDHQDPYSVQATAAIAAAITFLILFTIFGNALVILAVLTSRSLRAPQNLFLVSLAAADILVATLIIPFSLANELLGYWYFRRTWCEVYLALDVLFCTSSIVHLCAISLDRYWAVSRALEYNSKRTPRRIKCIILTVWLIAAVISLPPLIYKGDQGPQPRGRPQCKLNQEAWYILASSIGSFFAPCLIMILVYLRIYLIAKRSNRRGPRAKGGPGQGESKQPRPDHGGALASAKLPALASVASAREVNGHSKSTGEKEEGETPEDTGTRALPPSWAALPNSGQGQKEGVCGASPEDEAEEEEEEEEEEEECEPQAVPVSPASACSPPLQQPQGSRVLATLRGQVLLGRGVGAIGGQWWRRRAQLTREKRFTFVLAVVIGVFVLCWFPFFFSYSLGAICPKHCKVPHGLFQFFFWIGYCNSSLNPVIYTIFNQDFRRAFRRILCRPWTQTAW

The target in this test is alpha 2B (h) (antagonist radioligand) (Homo sapiens, UniProt P18089). The experiment in a line: Receptor protein binding studies, alpha 2B. The text has this:
The four 3,11b trans-dihydrotetrabenazine isomers (+)-α, (−)-α, (+)-β and (−)-β were subjected to specific binding assays to test their ability to bind to the receptors and transporter proteins described below. The results are set out in Table 1

As to (−)-α-dihydrotetrabenazine [(−)-Alpha], the “% Inhibition of specific binding” value was 8% (CONC 1.0E−05 (unit not given)) and −22% (CONC 1.0E−06 (unit not given)).

Turning to (+)-α-dihydrotetrabenazine [(+)-Alpha], the “% Inhibition of specific binding” value (CONC 1.0E−05 (unit not given)) was −11% and the “% Inhibition of specific binding” value (CONC 1.0E−06 (unit not given)) is −17%.

As to (+)-β-dihydrotetrabenazine [(+)-Beta], the “% Inhibition of specific binding” value is on record as −1% (CONC 1.0E−05 (unit not given)) and −19% (CONC 1.0E−06 (unit not given)).
